Drawing on BindingDB's records for 28684009, this text covers Kd for four compounds.

In this assay the target is Acetylcholinesterase (Homo sapiens, UniProt P22303).
In the case of `COc1cc2c(cc1OC)CN(CC1CCN(Cc3cc(F)cc(/C=N/O)c3O)CC1)CC2`, the dissociation constant Kd (commonly the concentration at which binding is half-saturated) stood at 268 µM.

`COc1cc2c(cc1OC)CN(CC1CCN(Cc3cc(Cl)cc(/C=N/O)c3O)CC1)CC2` displayed a dissociation constant (Kd) of 262 µM.

As for `COc1cc2c(cc1OC)CN(CC1CCN(Cc3cc(Br)cc(/C=N/O)c3O)CC1)CC2`, binding was characterised by a dissociation constant (Kd) of 204 µM.

`COc1cc(/C=N/O)c(O)c(CN2CCC(CN3CCc4cc(OC)c(OC)cc4C3)CC2)c1`: the affinity, expressed as Kd, was 512 µM.
